In ChEMBL document CHEMBL1155491, “Acylurea connected straight chain hydroxamates as novel histone deacetylase inhibitors: Synthesis, SAR, and in vivo antitumor activity” (Bioorg Med Chem Lett, 2010) one finds Ki and IC50 data, which are given here for 1 molecule.

Test [1] deals with T1, Polyamine deacetylase HDAC10 (Homo sapiens, UniProt Q969S8).
T1 sequence (Q969S8 whole entry): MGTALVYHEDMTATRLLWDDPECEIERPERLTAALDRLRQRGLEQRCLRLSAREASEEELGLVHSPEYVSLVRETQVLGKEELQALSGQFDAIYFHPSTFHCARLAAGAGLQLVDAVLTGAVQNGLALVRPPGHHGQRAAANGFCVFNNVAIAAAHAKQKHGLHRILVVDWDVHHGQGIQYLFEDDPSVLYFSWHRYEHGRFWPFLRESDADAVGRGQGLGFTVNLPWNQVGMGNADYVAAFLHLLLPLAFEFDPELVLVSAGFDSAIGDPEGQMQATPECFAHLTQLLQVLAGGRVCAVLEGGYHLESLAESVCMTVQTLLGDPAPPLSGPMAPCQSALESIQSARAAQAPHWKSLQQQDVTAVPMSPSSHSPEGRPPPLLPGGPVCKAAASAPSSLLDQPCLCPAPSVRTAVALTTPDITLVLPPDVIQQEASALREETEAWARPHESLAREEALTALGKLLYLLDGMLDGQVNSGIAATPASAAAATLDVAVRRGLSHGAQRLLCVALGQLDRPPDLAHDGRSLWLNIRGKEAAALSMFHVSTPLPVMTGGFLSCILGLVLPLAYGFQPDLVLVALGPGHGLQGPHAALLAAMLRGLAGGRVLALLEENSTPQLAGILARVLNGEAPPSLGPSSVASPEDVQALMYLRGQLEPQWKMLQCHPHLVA
The test is described as follows: Inhibition of HDAC10.

The target in the next test is T2, Histone deacetylase 8 (Homo sapiens, UniProt Q9BY41).
T2 sequence (Q9BY41 whole entry): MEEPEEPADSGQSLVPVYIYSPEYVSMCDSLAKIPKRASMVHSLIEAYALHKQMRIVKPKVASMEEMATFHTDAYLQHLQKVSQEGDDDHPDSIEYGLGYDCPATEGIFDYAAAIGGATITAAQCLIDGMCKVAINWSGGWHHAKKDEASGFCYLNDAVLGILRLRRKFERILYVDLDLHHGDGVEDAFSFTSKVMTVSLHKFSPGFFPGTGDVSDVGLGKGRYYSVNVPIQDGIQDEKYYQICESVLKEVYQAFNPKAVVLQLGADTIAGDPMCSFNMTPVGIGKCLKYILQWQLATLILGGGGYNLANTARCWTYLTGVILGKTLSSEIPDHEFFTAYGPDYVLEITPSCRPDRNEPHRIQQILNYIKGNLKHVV
Briefly: Inhibition of HDAC8.

With `O=C(CCCCCCC(=O)Nc1ccccc1)NO` [VORINOSTAT], the inhibition constant Ki came to 0.05 µM in test [1] and 0.205 µM on Histone deacetylase 8. The same molecule showed an IC50 at Histone deacetylase 8 of 0.272 µM.
